Assay results reported in PubChem BioAssay AID602141 (Sanford-Burnham Center for Chemical Genomics, 2011).
Only a part is listed here, and it is no random draw. Active and inactive are the calls of the source.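 How the source made its calls: active means corrected activity change at or below -50% at 5 µM; inactive means the rest.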

Experiment: KKLEB cell viability reduction – uHTS, fluorescence assay plates, cytotoxicity control for CF NF-kB inhibitor project, primary screen (AID 602141)
Details: KKLEB CF airway cells viability, ATPlite luminescence, overnight; at 5 µM; active compounds read low; cells stimulated with P. aeruginosa culture filtrate

SMILES	activity change (cytotoxicity)
O=c1[nH]c2ccccc2n1C1CCN(C(c2ccccc2)c2nnnn2C2CCCCC2)CC1 (configuration not stated)	inactive: 0.5%
COc1cc(C(=O)NCC2(N(C)C)CCCCC2)ccc1OC(F)F	inactive: -8.5%
CCOC(=O)N1CCC(Nc2cccc(C)c2)CC1	inactive: -17.5%
O=c1[nH]c2ccccc2n1C1CCN(C(c2cccc3ccccc23)c2nnnn2C2CCCC2)CC1 (configuration not stated)	inactive: -0.5%
CC(C)(C)n1nnnc1C(c1ccccc1)N1CCC(n2c(=O)[nH]c3ccccc32)CC1 (configuration not stated)	inactive: 2.2%
O=C1CCN(Cc2ccccc2)CC1	inactive: 11.3%
CCOc1ccc(C)cc1CN(CCCl)CCCl	inactive: -3%
O=C(NCC1(N2CCCCC2)CCCCC1)c1ccc(F)cc1	inactive: -2.7%
O=P1(N(CCCl)CCCl)SCCCS1	inactive: 8.8%
CCCCn1nnnc1C(c1cc2ccccc2o1)N1CCC(n2c(=O)[nH]c3ccccc32)CC1 (configuration not stated)	inactive: -16.4%
CCCCOc1ccc(C(=O)NCC2(N3CCOCC3)CCCCC2)cc1	inactive: -0.3%
COc1ccc(NC2CCN(CCc3ccccc3)CC2)c(OC)c1	inactive: 5.8%
CCOC(=O)N1CCC(Nc2ccc(F)cc2)CC1	inactive: 1.3%
O=c1[nH]c2ccccc2n1C1CCN(C(c2ccccc2OC(F)(F)F)c2nnnn2C2CCCCC2)CC1 (configuration not stated)	inactive: -16.3%
O=C(NCC1(N2CCCCC2)CCCCC1)c1ccc(Cl)nc1	inactive: 6.5%
Cc1cc(C)cc(N(C(=O)c2ccccc2)C2CCN(C(=O)OC(C)(C)C)CC2)c1	inactive: -7.3%
O=C(NCC1(N2CCOCC2)CCCCC1)c1cc2ccccc2o1	inactive: -7.9%
O=C(OC1CN2CCC1CC2)C1c2ccccc2Oc2ccccc21 (configuration not stated)	inactive: 2.3%
O=c1[nH]c2ccccc2n1C1CCN(C(c2cc3ccccc3o2)c2nnnn2C2CCCCC2)CC1 (configuration not stated)	inactive: -11.3%
N#CC1(Nc2ccccc2)CCN(Cc2ccccc2)CC1	inactive: -10.9%
O=C(NCC1(N2CCCCC2)CCCCC1)c1ccc(Cl)s1	inactive: 2.8%
COc1ccc(Cl)cc1C(=O)NCC1(N2CCOCC2)CCCCC1	inactive: 11.5%

SMILES	activity change (cytotoxicity)
CCOC(=O)N1CCC(Nc2ccc(OC)cc2)CC1	inactive: 5.1%
CCCCn1nnnc1C(c1ccc(OC)cc1)N1CCC(n2c(=O)[nH]c3ccccc32)CC1 (configuration not stated)	inactive: -6.1%
COc1ccc(C(=O)NCC2(N3CCCCC3)CCCCC2)cc1	inactive: -5.2%
CCC(c1nnnn1C1CCCC1)N1CCC(n2c(=O)[nH]c3ccccc32)CC1 (configuration not stated)	inactive: -5.9%
COc1ccc(C(=O)NCC2(N3CCCCC3)CCCCC2)c(OC)c1OC	inactive: -14.6%
CC(C)(C)OC(=O)N1CCC(N(C(=O)c2ccccc2)c2ccc(F)cc2)CC1	inactive: -3.4%
O=C(NCC1(N2CCCCC2)CCCCC1)c1ccc(=O)[nH]c1	inactive: 18.8%
CCCCn1nnnc1C(c1cccs1)N1CCC(n2c(=O)[nH]c3ccccc32)CC1 (configuration not stated)	inactive: -16%
CCCCn1nnnc1C(CC)N1CCC(n2c(=O)[nH]c3ccccc32)CC1 (configuration not stated)	inactive: 5%
O=C(NCC1(N2CCCCC2)CCCCC1)c1cccs1	inactive: 1.7%
CSc1ccccc1C(=O)NCC1(N2CCCCC2)CCCCC1	inactive: -4.2%
Cc1cccc(NC2(C#N)CCN(Cc3ccccc3)CC2)c1	inactive: 12%
O=C(NCC1(N2CCCCC2)CCCCC1)c1cncc(Br)c1	inactive: 10%
CN1CCC(Nc2cccc(F)c2)CC1	inactive: -0.6%
COc1ccc(C(c2nnnn2C2CCCC2)N2CCC(n3c(=O)[nH]c4ccccc43)CC2)cc1 (configuration not stated)	inactive: -3.6%
Cc1ccc(C(=O)NCC2(N(C)C)CCCCC2)o1	inactive: 0.1%
CCCOc1ccc(C(=O)NCC2(N(C)C)CCCCC2)cc1OC	inactive: -3.9%
CC(C)c1ccc(NC2CCN(C(=O)OC(C)(C)C)CC2)cc1	inactive: 3.5%
CCCCn1nnnc1C(c1ccccc1OC(F)(F)F)N1CCC(n2c(=O)[nH]c3ccccc32)CC1 (configuration not stated)	inactive: -1.3%
COc1ccc(CN(CCCl)CCCl)cc1Cl	inactive: 6.1%
CN(C)c1cccc(C(=O)NCC2(N3CCCCC3)CCCCC2)c1	inactive: -3.2%
COc1cc(OC)c(C(=O)NCC2(N(C)C)CCCCC2)cc1OC	inactive: -0.8%

SMILES	activity change (cytotoxicity)
CCC(c1nnnn1C(C)(C)C)N1CCC(n2c(=O)[nH]c3ccccc32)CC1 (configuration not stated)	inactive: -8.8%
O=C(NCC1(N2CCOCC2)CCCCC1)c1cc(F)c(F)cc1Cl	inactive: -11.7%
CCCCn1nnnc1C(c1ccnc2ccccc12)N1CCC(n2c(=O)[nH]c3ccccc32)CC1 (configuration not stated)	inactive: 7.2%
O=C(NCC1(N2CCCCC2)CCCCC1)c1cccc(C(F)(F)F)c1	inactive: -2%
COc1cc(C(=O)NCC2(N3CCCCC3)CCCCC2)ccc1OC(F)F	inactive: 2.8%
O=C(NCC1(N2CCOCC2)CCCCC1)c1cc(=O)[nH]c2ccccc12	inactive: -5.6%
CCCCn1nnnc1C(c1cccc2ccccc12)N1CCC(n2c(=O)[nH]c3ccccc32)CC1 (configuration not stated)	inactive: 18.4%
CN1CCN(CCOC(=O)C(O)(c2ccccc2)c2ccccc2)CC1	inactive: 8.6%
COc1ccc(NC2CCN(C(=O)OC(C)(C)C)CC2)cc1	inactive: -4.4%
CC(C)c1ccc(C(=O)NCC2(N3CCOCC3)CCCCC2)cc1	inactive: -0.7%
CC(C)(C)n1nnnc1C(c1ccccc1OC(F)(F)F)N1CCC(n2c(=O)[nH]c3ccccc32)CC1 (configuration not stated)	inactive: 2.1%
O=C(NCC1(N2CCCCC2)CCCCC1)c1ccc(OC(F)F)cc1	inactive: -36.3%
CCN1CCC(Nc2ccc(Cl)cc2)CC1	inactive: -0.5%
N#CC1(Nc2ccccc2)CCN(CCc2ccccc2)CC1	inactive: -0.4%
O=c1[nH]c2ccccc2n1C1CCN(C(c2ccccc2OC(F)(F)F)c2nnnn2C2CCCC2)CC1 (configuration not stated)	inactive: 6.6%
CSc1ccc(C(=O)NCC2(N3CCOCC3)CCCCC2)cc1	inactive: 7.1%
O=C(NCC1(N2CCCCC2)CCCCC1)c1cccc([N+](=O)[O-])c1	inactive: 33.3%
CN(C)C1(CNC(=O)c2cccc(C#N)c2)CCCCC1	inactive: 8.9%
c1ccc(CN2CCC(Nc3ccccc3)CC2)cc1	inactive: 6.1%
O=c1[nH]c2ccccc2n1C1CCN(C(c2ccccc2)c2nnnn2C2CCCC2)CC1 (configuration not stated)	inactive: 5.3%
CCCN1CCC(Nc2cc(OC)cc(OC)c2)CC1	inactive: 6.8%
Cc1cc(N(CCCl)CCCl)ccc1C=O	inactive: 10.4%

SMILES	activity change (cytotoxicity)
CC(C)(C)n1nnnc1C(c1cccc2ccccc12)N1CCC(n2c(=O)[nH]c3ccccc32)CC1 (configuration not stated)	inactive: -5.3%
N#Cc1ccc(C(=O)NCC2(N3CCCCC3)CCCCC2)cc1	inactive: 5.4%
CC(C)(C)OC(=O)N1CCC(N(C(=O)c2ccccc2)c2ccc(Cl)cc2)CC1	inactive: -0.2%
COc1cccc(C(c2nnnn2C(C)(C)C)N2CCC(n3c(=O)[nH]c4ccccc43)CC2)c1OC (configuration not stated)	inactive: 5.3%
CCOC(=O)N1CCC(Nc2ccc(C)cc2)CC1	inactive: 0.1%
N/C(=N\O)c1c(N)no[n+]1[O-]	inactive: -1.4%
O=C(OC1CN2CCC1CC2)C1c2ccccc2C=Cc2ccccc21 (configuration not stated)	inactive: -0.5%
O=c1[nH]c2ccccc2n1C1CCN(C(c2cccs2)c2nnnn2C2CCCC2)CC1 (configuration not stated)	inactive: -24.9%
CCCCn1nnnc1C(c1cccc(OC)c1OC)N1CCC(n2c(=O)[nH]c3ccccc32)CC1 (configuration not stated)	inactive: 0.6%
CCCCn1nnnc1C(c1ccccc1)N1CCC(n2c(=O)[nH]c3ccccc32)CC1 (configuration not stated)	inactive: -3.9%
COc1cc(C(=O)NCC2(N3CCOCC3)CCCCC2)cc(OC)c1C	inactive: -4.3%
O=C(NCC1(N2CCOCC2)CCCCC1)c1cc(Br)ccc1Cl	inactive: 9.3%
O=c1[nH]c2ccccc2n1C1CCN(C(c2cccs2)c2nnnn2C2CCCCC2)CC1 (configuration not stated)	inactive: -24.2%
COc1ccc(C(=O)NCC2(N3CCOCC3)CCCCC2)cc1OC	inactive: 6.8%
O=c1[nH]c2ccccc2n1C1CCN(C(c2ccnc3ccccc23)c2nnnn2C2CCCC2)CC1 (configuration not stated)	inactive: 19.2%
COc1cccc(C(c2nnnn2C2CCCC2)N2CCC(n3c(=O)[nH]c4ccccc43)CC2)c1OC (configuration not stated)	inactive: -4.8%
COc1cc(OC)cc(C(=O)NCC2(N3CCOCC3)CCCCC2)c1	inactive: 6.6%
COc1cccc(C(=O)N(c2cc(C)cc(C)c2)C2CCN(C(=O)OC(C)(C)C)CC2)c1	inactive: 5%
CCC(CO)(C(=O)OC1CN2CCC1CC2)c1ccccc1 (configuration not stated)	inactive: -0.2%
CN1CCC(Nc2ccc(Cl)cc2)CC1	inactive: 12.1%
CCOc1ncccc1C(=O)NCC1(N2CCOCC2)CCCCC1	inactive: -2.8%
CN1CCC(Nc2ccc(F)c(Cl)c2)CC1	inactive: 7.3%

SMILES	activity change (cytotoxicity)
CC(C)(C)OC(=O)N1CCC(Nc2ccccc2)CC1	inactive: 4.4%
O=C(O)C1(Nc2ccccc2)CCN(Cc2ccccc2)CC1	inactive: 4%
CCCOc1ccc(C(=O)NCC2(N(C)C)CCCCC2)cc1	inactive: 9.9%
O=c1[nH]c2ccccc2n1C1CCN(C(c2cc3ccccc3o2)c2nnnn2C2CCCC2)CC1 (configuration not stated)	inactive: -5.9%
Cc1ccccc1NC1(C#N)CCN(Cc2ccccc2)CC1	inactive: -7.3%
CC(C)(C)n1nnnc1C(c1ccnc2ccccc12)N1CCC(n2c(=O)[nH]c3ccccc32)CC1 (configuration not stated)	inactive: -0.4%
COc1ccc(C(c2nnnn2C2CCCCC2)N2CCC(n3c(=O)[nH]c4ccccc43)CC2)cc1 (configuration not stated)	inactive: -8.9%
CCN1CCC(Nc2cccc(F)c2)CC1	inactive: 6.4%
O=C(NCC1(N2CCCCC2)CCCCC1)c1ccco1	inactive: 2.3%
Cn1c(=O)[nH]cc(N(CCCl)CCCl)c1=O	inactive: 14.4%
CN(C)c1ccc(C(=O)NCC2(N3CCCCC3)CCCCC2)cc1	inactive: -0.7%
CC(=O)N(c1ccccc1)C1CCNCC1	inactive: 19.3%
COc1cccc(C(c2nnnn2C2CCCCC2)N2CCC(n3c(=O)[nH]c4ccccc43)CC2)c1OC (configuration not stated)	inactive: 8.6%
CCC(c1nnnn1C1CCCCC1)N1CCC(n2c(=O)[nH]c3ccccc32)CC1 (configuration not stated)	inactive: -0.1%
O=c1[nH]c2ccccc2n1C1CCN(C(c2ccnc3ccccc23)c2nnnn2C2CCCCC2)CC1 (configuration not stated)	inactive: -8.7%
COc1cc(OC)cc(C(=O)NCC2(N3CCCCC3)CCCCC2)c1	inactive: -6.1%
Cc1ccc(C(=O)NCC2(N3CCCCC3)CCCCC2)o1	inactive: -11.6%
Fc1ccccc1NC1CCN(Cc2ccccc2)CC1	inactive: 3.6%
Cc1ccc(NC2(C#N)CCN(Cc3ccccc3)CC2)cc1	inactive: -0.9%
